Measurements taken from patent publication US12031977B2, “Ex vivo system for determining multiple drug-drug transporter interactions and methods of use thereof” (Massachusetts Institute of Technology, priority 2019, dated 2024).

What was measured:
Pgp, BCRP, MRP2 = details: transporter(s) reported in previous literature for the drug; cited from earlier work
P-gp, BCRP, and MRP2 = assay: mock screening of model drugs: ex vivo perfusion through porcine small intestine tissue after siRNA knockdown; details: transporter(s) found by siRNA knockdown perfusion screen

## S)-(−)-Propranolol hydrochloride
Pgp, BCRP, MRP2
  Literature Target: Pgp
P-gp, BCRP, and MRP2
  Platform Target: Pgp

## Dihydroergotamine (+)-tartrate salt
Pgp, BCRP, MRP2
  Literature Target: Pgp
P-gp, BCRP, and MRP2
  Platform Target: MRP2
